Here are results for one protein from patent publication US20230265432.

This series deals with Myc-tagged RBBP4.

B1: Flag-tagged full-length RNF5 (WT) (protein)
chain: MAAAEEEDGGPEGPNRERGGAGATFECNICLETAREAVVSVCGHLYCWPCLHQWLETRPERQECPVCKAGISREKVVPLYGRGSQKPQDPRLKTPPRPQGQRPAPESRGGFQPFGDTGGFHFSFGVGAFPFGFFTTVFNAHEPFRRGTGVDLGQGHPASSWQDSLFLFLAIFFFFWLLSI
For B1, the “poly-ubiquitination of Myc-RBBP4 with K-only HA-ubiquitin mutants (K29, K11, K27, K6, K33)” value is “Poly-ubiquitination of RBBP4 was enhanced by RNF5 only in the presence of K29 ubiquitin”.
